Measured values reported in ChEMBL document CHEMBL3860041, “Synthesis, biological evaluation and molecular modeling study of some new methoxylated 2-benzylthio-quinazoline-4(3H)-ones as nonclassical antifolates” (Bioorg Med Chem Lett, 2016).

System: Escherichia coli
Conditions: IFO 3301

GENTAMICIN
MIC: 0.5 µg/mL
